Test results: patent US9629920B2
Several values for one entry are separate records, joined by “and”; a condition that tells them apart may be missing. Equal entries are not always repeated. Some compounds may have been tested in ways that are not shown here.

Protein sequences, listed by entry. Tags and fused reporters are not part of them. Residues count along the entry.
UniProt P02769, 25-607 limits assumed: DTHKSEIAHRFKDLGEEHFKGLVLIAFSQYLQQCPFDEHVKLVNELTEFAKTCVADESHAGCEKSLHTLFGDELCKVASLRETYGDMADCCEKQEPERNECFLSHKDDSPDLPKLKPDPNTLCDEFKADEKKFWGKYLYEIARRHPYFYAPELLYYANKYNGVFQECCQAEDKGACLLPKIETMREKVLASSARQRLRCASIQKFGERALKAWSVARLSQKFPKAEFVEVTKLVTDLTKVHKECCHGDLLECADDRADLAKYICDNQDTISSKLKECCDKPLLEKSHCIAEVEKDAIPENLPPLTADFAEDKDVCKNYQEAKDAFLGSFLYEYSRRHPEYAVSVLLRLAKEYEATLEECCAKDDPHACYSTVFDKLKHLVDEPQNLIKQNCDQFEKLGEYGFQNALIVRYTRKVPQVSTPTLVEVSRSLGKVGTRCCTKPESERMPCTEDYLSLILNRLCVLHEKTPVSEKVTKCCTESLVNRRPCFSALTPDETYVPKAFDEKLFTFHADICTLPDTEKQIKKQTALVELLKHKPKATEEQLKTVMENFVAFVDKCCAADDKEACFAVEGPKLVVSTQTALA

Molecular target: Bovine Serum Albumin (BSA) (Bos taurus, UniProt P02769)
Assay: Fentanyl binding to BSA by two-compartment equilibrium dialysis

CCC(=O)N(c1ccccc1)C1CCN(CCc2ccccc2)CC1
Binding Preference A/B (Control (no BSA)): 0.95
Fentanyl concentration, compartment A (Control (no BSA)): 391 µM
Fentanyl concentration, compartment B (Control (no BSA)): 410 µM
Fentanyl concentration, compartment A (compartment A with 95 mg/ml BSA, 0.78 mM fentanyl start, 25 mM phosphate buffer pH 7, four-day equilibrium, room temperature): 639 µM and 552 µM and 544 µM
Fentanyl concentration, compartment B (compartment B, buffer only (0 mg/ml BSA), opposite compartment has 95 mg/ml BSA, four-day equilibrium): 145 µM and 225 µM and 136 µM
Binding Preference A/B (ratio of fentanyl in compartment A (95 mg/ml BSA) to compartment B): 4.4 and 2.45 and 4.0
Binding of fentanyl to BSA protein (in words) (three separate determinations): shown to bind to BSA protein
